PubChem BioAssay (Tox21)
The list shows a part of the results, in another mix than the full data. Results filed as inconclusive are left out. Some structures have more than one record in an assay (separate samples or runs), and their calls can disagree. The source made the active and inactive calls. Calls follow the shape of the dose curve; as a rule, active = well fitted inhibition curve with a large enough effect in the repeat runs; inconclusive = weak or mixed curves; inactive = flat fitted curve, though single readings scatter.

Chains of the proteins cited; added tags and fusions are not shown.
UniProt P08659, whole entry: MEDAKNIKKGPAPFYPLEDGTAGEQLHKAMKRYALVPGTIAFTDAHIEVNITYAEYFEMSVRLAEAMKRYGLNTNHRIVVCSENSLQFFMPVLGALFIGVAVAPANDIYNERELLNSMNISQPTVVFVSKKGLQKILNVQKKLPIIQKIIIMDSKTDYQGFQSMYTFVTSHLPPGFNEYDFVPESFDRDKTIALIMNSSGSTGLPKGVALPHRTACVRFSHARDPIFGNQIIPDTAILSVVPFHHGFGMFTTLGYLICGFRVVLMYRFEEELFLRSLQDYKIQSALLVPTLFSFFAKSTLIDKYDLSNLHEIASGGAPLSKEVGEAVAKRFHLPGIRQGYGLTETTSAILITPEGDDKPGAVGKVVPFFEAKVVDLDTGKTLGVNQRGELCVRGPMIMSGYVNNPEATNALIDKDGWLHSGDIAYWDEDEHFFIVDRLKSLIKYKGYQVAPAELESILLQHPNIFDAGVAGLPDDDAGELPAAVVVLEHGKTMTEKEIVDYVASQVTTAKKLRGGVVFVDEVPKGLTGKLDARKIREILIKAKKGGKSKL

target: Luciferin 4-monooxygenase (Photinus pyralis) (UniProt P08659); test: qHTS assay to identify small molecule inhibitors of firefly luciferase (AID 1224835); also: nearly all actives have a fitted effect of over 25% in size; conditions: purified P. pyralis luciferase, luminescence inhibition; series mostly up to 115 µM; activity change, negative = inhibition: at the top concentration
Excerpt: U.S. Tox21 Program National Center for Advancing Translational Sciences [NCATS] NIH Chemical Genomics Center [NCGC] U.S. Environmental Protection Agency [EPA] National Institutes of Environmental Health Sciences [NIEHS] National Toxicology Program [NTP] U.S. Food and Drug Administration [FDA] Tox21 Assay Overview: Firefly (Photinus pyralis) luciferase is one of the most commonly used transcriptional reporters. Firefly luciferase reporter-gene assays are generally considered one of the most sensitive assay types (Wood, 1995; Wood, 1998). However, it was initially observed, in 1991, by Thompson et al., that compounds that resemble the substrates of firefly luciferase (FLuc) can act as competitive inhibitors of the enzyme, and that these compounds, upon interaction with luciferase in the cell, can actually stabilize the protein and increase its half-life. Previous profiling work by other groups to determine the prevalence of compounds that affect FLuc enzymatic activity (PubChem AID 411) identified that ~3% of the MLSMR library (then at ~72K) inhibited FLuc. […] Thus the Tox21 10K library is profiled for activity against FLuc using a biochemical assay of purified FLuc and KM concentrations of FLuc substrates (D-luciferin and ATP).
These assay plates were then treated with 23nL of compound or DMSO using a Kalypsys pin tool, which allows for delivery of a 6-point interplate titration of each compound to the assay plate (quantitative HTS.) 1 uL of firefly luciferase mix (containing 50 mM Tris acetate, pH 7.6, 0.04 uM P. pyralis luciferase, 0.01% Tween, 0.05% BSA and dH2O) was then delivered by FRD to each well. Luciferase activity was then measured using a ViewLux CCD imager.
% is scaled to controls: 0 for no effect and ±100 for the full control effect; potency is read from the fitted curve at half-maximal effect.

| Compound | activity change, negative = inhibition | Potency |
| --- | --- | --- |
| CCOP(=O)(CC)OCC | inactive: 2.49% |  |
| CC(C)OP(C)(=O)OC(C)C |  | active: 63.3 µM and inactive |
| [NH4+].[O-][Cl+3]([O-])([O-])[O-] |  | inactive |
| Cc1c([N+](=O)[O-])cccc1[N+](=O)[O-] |  | inactive |
| CCOP(=O)(CC)Oc1ccc([N+](=O)[O-])cc1 (stereo unspecified) | inactive: 0.563% [at 52.9 µM] |  |
| COc1ccc([N+](=O)[O-])cc1[N+](=O)[O-] | inactive: 0.0539% |  |
| N=C(N)N[N+](=O)[O-] | inactive: 0.191% |  |
| CCN(CC)CCCl | inactive: -1.8% |  |
| O=[N+]([O-])c1cccc([N+](=O)[O-])c1 | inactive: 1.74% |  |
| COP(C)(=O)OC |  | inactive |
| O=[N+]([O-])OCC(CO[N+](=O)[O-])(CO[N+](=O)[O-])CO[N+](=O)[O-] | inactive: -4.72% |  |
| O=[N+]([O-])[O-].[NH4+] |  | inactive |
| CC(C)N(CCO)C(C)C | inactive: -7.13% |  |
| CP(=O)(O)OCCC[Si](O)(O)O | inactive: -0.399% |  |
| Cc1cccc([N+](=O)[O-])c1[N+](=O)[O-] | inactive: 6.52% [at 52.9 µM] |  |
| CN(C)CCCl | inactive: 0.727% |  |
| Cc1ccc([N+](=O)[O-])cc1[N+](=O)[O-] |  | inactive |
| C/C1=C2N=C(/C=C3N=C(/C(C)=C4\[N-][C@@](C)([C@@H]5N=C1[C@](C)(CCC(=O)NC[C@@H](C)OP(=O)([O-])O[C@H]1[C@@H](O)[C@@H](n6cnc7cc(C)c(C)cc76)O[C@@H]1CO)[C@H]5CC(N)=O)[C@@](C)(CC(N)=O)[C@@H]4CCC(N)=O)[C@@](C)(CC(N)=O)[C@@H]\3CCC(N)=O)C(C)(C)[C@@H]/2CCC(N)=O.[C-]#N.[Co+3] | inactive: -9.53% [at 52.9 µM] |  |
| OCCSCCO |  | inactive |
| N#CBr | inactive: 0.613% |  |
| Nc1cc([N+](=O)[O-])cc([N+](=O)[O-])c1O | inactive: -9.76% |  |
